Among the data in ChEMBL document CHEMBL5696443 (Clin Cancer Res, 2016) are IC50 values, retold here.

The chains behind the UniProt entries cited, without tags or fusion partners.
UniProt Q13882, whole entry: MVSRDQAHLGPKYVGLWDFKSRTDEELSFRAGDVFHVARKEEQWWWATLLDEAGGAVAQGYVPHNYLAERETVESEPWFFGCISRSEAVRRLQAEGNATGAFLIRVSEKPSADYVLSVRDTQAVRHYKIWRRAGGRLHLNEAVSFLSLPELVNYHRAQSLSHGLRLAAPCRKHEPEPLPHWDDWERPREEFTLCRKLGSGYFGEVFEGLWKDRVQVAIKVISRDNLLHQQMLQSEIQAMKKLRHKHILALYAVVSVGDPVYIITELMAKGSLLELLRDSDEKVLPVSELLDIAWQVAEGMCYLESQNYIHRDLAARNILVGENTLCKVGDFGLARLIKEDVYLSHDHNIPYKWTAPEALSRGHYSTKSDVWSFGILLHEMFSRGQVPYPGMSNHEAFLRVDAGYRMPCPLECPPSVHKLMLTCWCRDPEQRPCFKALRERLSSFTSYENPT

pIC50: −log10 of the molar value.

For the assay, the target named is Protein-tyrosine kinase 6 (Homo sapiens, UniProt Q13882). Briefly: Inhibition of human PTK6 using poly (Glu, Tyr)4:1 as substrate in presence of [gamma33P]-ATP by HotSpot assay.

For `COc1cc(N2CCC(N3CCN(C)CC3)CC2)ccc1Nc1ncc(Cl)c(Nc2ccccc2P(C)(C)=O)n1` [BRIGATINIB], the pIC50 was 8.39.

The pIC50 is the negative decadic logarithm of the IC50, by convention in mol/L.
